Measured values: PubChem BioAssay (NCATS)
Several values for one entry are separate records, joined by “and”; a condition that tells them apart may be missing. Equal entries are not always repeated. The entries are a selection whose mix differs from that of the whole data set. Inconclusive results are not listed. Some structures show a salt or complex split into parts, the way the source records it. Activity calls are given as the source filed them. Unless noted, calls follow the shape of the dose curve; as a rule, active = well fitted curve in the direction sought with a large enough effect; inconclusive = small, poorly fitted or top-dose-only effect, or another doubt; inactive = no such curve, though single readings can be large; an effect the other way counts as inactive or inconclusive.

Sequences of proteins named here, by UniProt entry; tags and fusion partners are left off.
UniProt Q9R1A7, whole entry: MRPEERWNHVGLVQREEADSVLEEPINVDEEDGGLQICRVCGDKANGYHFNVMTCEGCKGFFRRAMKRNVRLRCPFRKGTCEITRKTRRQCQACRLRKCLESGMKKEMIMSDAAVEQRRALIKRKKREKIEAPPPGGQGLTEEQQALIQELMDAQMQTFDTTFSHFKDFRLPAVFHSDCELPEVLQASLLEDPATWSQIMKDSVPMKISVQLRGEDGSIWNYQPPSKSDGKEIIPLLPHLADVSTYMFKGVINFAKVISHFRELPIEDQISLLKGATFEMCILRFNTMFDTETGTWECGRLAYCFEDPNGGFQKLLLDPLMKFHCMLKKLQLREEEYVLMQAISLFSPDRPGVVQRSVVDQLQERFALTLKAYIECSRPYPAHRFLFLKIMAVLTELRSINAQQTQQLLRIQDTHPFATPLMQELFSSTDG

What was measured:
PA-1 = experiment: Primary qHTS to identify gynecologic anti-cancer compounds using libraries of approved drugs and bioactive compounds (AID 1345084); conditions: Gynecologic cancer cell panel viability, ATPlite luminescence, 48 h; at 57.5 µM (top of the series) unless noted; also: % is scaled to controls: 0 for no effect and ±100 for the full control effect; nearly all actives have a fitted effect of over 55% in size
Summary of the method: (§1)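 In this quantitative HTS, cell killing is estimated from loss of ATP-dependent luciferase light. Cells see five compound concentrations over a 48 h exposure.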

SKOV3 = experiment: as above; conditions: Gynecologic cancer cell panel viability, ATPlite luminescence, 48 h; at 57.5 µM (top of the series) unless noted
Summary of the method: as §1

Tov-21-G = experiment: as above; conditions: Gynecologic cancer cell panel viability, ATPlite luminescence, 48 h; at 57.5 µM (top of the series) unless noted
Summary of the method: as §1

Tov112D = experiment: as above; conditions: Gynecologic cancer cell panel viability, ATPlite luminescence, 48 h; at 57.5 µM (top of the series) unless noted
Summary of the method: as §1

[1] = Drug repurposing screens with cells derived from glioblastoma tumor samples (AID 1345199); conditions: GBM patient neurospheres viability, ATP luminescence, 48 h; Potency: tumour line A; series mostly up to 46.1 µM; also: % is scaled to controls: 0 for no effect and ±100 for the full control effect; nearly all actives have a fitted effect of over 40% in size
Summary of the method: (§2)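 Primary testing used CD133+ neurospheres from four GBM patients, seven concentrations, 48 h exposure and ATP-based viability; confirmation added three slower-growing patient lines.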

astro = experiment: as above; conditions: viability, ATP luminescence, 48 h
Summary of the method: as §2

[2] = molecular target: Nuclear receptor subfamily 1 group I member 2 (Rattus norvegicus) (UniProt Q9R1A7); experiment: qHTS assay for small molecule activators of the rat pregnane X receptor (rPXR) signaling pathway (AID 651751; call rule not given here; also: 0% is about no effect); conditions: rPXR reporter cells, luciferase (One-Glo), 24 h
Hek293T = experiment: Primary qHTS to identify gynecologic anti-cancer compounds using libraries of approved drugs and bioactive compounds (AID 1345084); conditions: Gynecologic cancer cell panel viability, ATPlite luminescence, 48 h, control line for the selectivity index; at 57.5 µM (top of the series) unless noted; also: % is scaled to controls: 0 for no effect and ±100 for the full control effect; nearly all actives have a fitted effect of over 55% in size
Summary of the method: as §1

JEG-3 = experiment: as above; conditions: Gynecologic cancer cell panel viability, ATPlite luminescence, 48 h; at 57.5 µM (top of the series) unless noted
Summary of the method: as §1

OV90 = experiment: as above; conditions: Gynecologic cancer cell panel viability, ATPlite luminescence, 48 h; at 57.5 µM (top of the series) unless noted
Summary of the method: as §1

CCOP(=O)(CC)Oc1ccc([N+](=O)[O-])cc1 (stereo unspecified)
inactive: activity change, negative = cytotoxicity (PA-1) 3.12% | activity change, negative = cytotoxicity (SKOV3) -28.3% | activity change, negative = cytotoxicity (Tov-21-G) -27.9% | activity change, negative = cytotoxicity (Tov112D) -4.82% | Potency [1] | activity, negative = cell killing (astro; at 45.9 µM (top of the series)) -22.6%

O=[N+]([O-])[O-].[NH4+]
inactive: Potency [1] | activity, negative = cell killing (astro; at 45.9 µM (top of the series)) -15.4% | max response [2] 2.84%

Cc1cccc([N+](=O)[O-])c1[N+](=O)[O-]
inactive: activity change, negative = cytotoxicity (Hek293T) -0.894% | activity change, negative = cytotoxicity (JEG-3) -22.4% | activity change, negative = cytotoxicity (OV90) -25.5% | activity change, negative = cytotoxicity (PA-1) 4.55% | activity change, negative = cytotoxicity (Tov-21-G) 10.6% | activity change, negative = cytotoxicity (Tov112D) 11.2% | Potency [1] | activity, negative = cell killing (astro; at 91.6 µM (top of the series)) -13.6% | max response [2] -4.56% and 1.5%

CCOP(=O)(CC)OCC
inactive: max response [2] -0.0905%

Cc1ccc([N+](=O)[O-])cc1[N+](=O)[O-]
inactive: max response [2] -5.43% and 0.0017%

C/C1=C2N=C(/C=C3N=C(/C(C)=C4\N=C(C(CC(N)=O)C4(C)CCC(=O)NCC(C)OP(=O)([O-])OC4C(CO)OC(n5cnc6cc(C)c(C)cc65)C4O)C4(C)N=C1C(CCC(N)=O)C4(C)CC(N)=O)C(CCC(N)=O)C\3(C)C)C(CCC(N)=O)C/2(C)CC(N)=O.[C-]#N.[Co] (stereo unspecified)
inactive: activity change, negative = cytotoxicity (Hek293T) 5.81% [at 25.3 µM] | activity change, negative = cytotoxicity (JEG-3) 14.7% [at 25.3 µM] | activity change, negative = cytotoxicity (OV90) 0.902% [at 25.3 µM] | activity change, negative = cytotoxicity (PA-1) 0.371% [at 25.3 µM] | activity change, negative = cytotoxicity (SKOV3) 36.6% [at 25.3 µM] | activity change, negative = cytotoxicity (Tov-21-G) -1.19% [at 25.3 µM] | activity change, negative = cytotoxicity (Tov112D) 4.94% [at 25.3 µM]

O=[N+]([O-])c1cccc([N+](=O)[O-])c1
inactive: activity change, negative = cytotoxicity (JEG-3) -0.981% [at 116 µM] | activity change, negative = cytotoxicity (Tov112D) -8.55% [at 116 µM] | Potency [1] | activity, negative = cell killing (astro; at 45.9 µM (top of the series)) -2.33% | activity, negative = cell killing (astro; at 91.6 µM (top of the series)) -16.5% | max response [2] 0.3% and -9.11%

CC(C)OP(=O)(F)OC(C)C
inactive: Potency [1] | activity, negative = cell killing (astro; at 45.9 µM (top of the series)) -14.2%

CCC(C)(OO)OOC(C)(CC)OO (stereo unspecified)
inactive: max response [2] 7.19% and 2.23%

C/C1=C2N=C(/C=C3N=C(/C(C)=C4\[N-][C@@](C)([C@@H]5N=C1[C@](C)(CCC(=O)NC[C@@H](C)OP(=O)([O-])O[C@H]1[C@@H](O)[C@@H](n6cnc7cc(C)c(C)cc76)O[C@@H]1CO)[C@H]5CC(N)=O)[C@@](C)(CC(N)=O)[C@@H]4CCC(N)=O)[C@@](C)(CC(N)=O)[C@@H]\3CCC(N)=O)C(C)(C)[C@@H]/2CCC(N)=O.[C-]#N.[Co+3]
inactive: activity change, negative = cytotoxicity (Hek293T) -2.66% | activity change, negative = cytotoxicity (JEG-3) -21.5% | activity change, negative = cytotoxicity (PA-1) -15.9% | activity change, negative = cytotoxicity (SKOV3) -34.3% | activity change, negative = cytotoxicity (Tov-21-G) 10.2% | activity change, negative = cytotoxicity (Tov112D) -1.01% | Potency [1] | activity, negative = cell killing (astro; at 21.2 µM (top of the series)) -9.68%

OCCSCCO
inactive: activity change, negative = cytotoxicity (Hek293T) -6.3% | activity change, negative = cytotoxicity (JEG-3) -5.08% | activity change, negative = cytotoxicity (OV90) -10.3% | activity change, negative = cytotoxicity (SKOV3) 9.01% | activity change, negative = cytotoxicity (Tov-21-G) 1.29% | activity change, negative = cytotoxicity (Tov112D) 9.95% | Potency [1] | activity, negative = cell killing (astro; at 45.9 µM (top of the series)) -15.8%

CN(C)CCS
inactive: Potency [1] | activity, negative = cell killing (astro; at 45.9 µM (top of the series)) -19%

O=[N+]([O-])OCC(CO[N+](=O)[O-])(CO[N+](=O)[O-])CO[N+](=O)[O-]
inactive: Potency [1] | activity, negative = cell killing (astro; at 45.9 µM (top of the series)) -14.7%

[NH4+].[O-][Cl+3]([O-])([O-])[O-]
inactive: max response [2] -4.2%

Cc1c([N+](=O)[O-])cccc1[N+](=O)[O-]
inactive: max response [2] -0.943% and -0.361%

CC(C)N(CCCl)C(C)C
inactive: Potency [1] | activity, negative = cell killing (astro; at 45.9 µM (top of the series)) -20.4%

CCOP(=S)(CC)Oc1cc(Cl)c(Cl)cc1Cl (stereo unspecified)
inactive: max response [2] 9.33%
